Values quoted from earlier work in PMC3907177.

Target: STRA6 (Homo sapiens) (UniProt Q9BX79)

In the case of RBP (from UniProt P02753), the Kd is given as 59 nM.
